According to patent US20040072754A1, “Amyloid precursor protein and APP-deprived peptides inhibit tumor growth and metastasis” (priority 2000, published 2004):

Key:
[1] = tested on: hippocampal cell cultures; conditions: cited from earlier work
[2] = tested on: D122 tumor cells (Lewis lung carcinoma); experiment: Lewis lung carcinoma (D122) i.v. lung metastasis model with i.p. injected Aβ peptides; type: in vivo, C57/BL mice; conditions: for reduction of the number of metastases in the lungs: 20 μg/mouse/injection (Aβ96-110: 10 μg), 7 times during two weeks before and 7 times after D122 i.v. injection, examined after 21 days

Substance	toxicity to neuronal cells [1]	reduction of the number of metastases in the lungs [2]	effect on Lewis lung carcinoma lung metastasis (in words) ([2]; C57/BL mice, i.p. peptide)
Asp-Ala-Glu-Phe-Arg-His-Asp-Ser-Gly-Tyr-Glu-Val-His-His-Gln-Lys (DAEFRHDSGYEVHHQK; listed as Homo sapiens) [Aβ1-16]	non-toxic	81%	most effective in inhibiting lung metastasis
Tyr-Glu-Val-His-His-Gln-Lys-Leu-Val-Phe-Phe (YEVHHQKLVFF; listed as Homo sapiens) [Aβ10-20]	–	17%	–
